Test results published in patent US9018371B2, “Adenosine derivatives, method for the synthesis thereof, and the pharmaceutical compositions for the prevention and treatment of the inflammatory diseases containing the same as an active ingredient” (FM Therapeutics Co., Ltd., priority 2007, dated 2015).

The chains behind the UniProt entries cited, without tags or fusion partners.
UniProt P30542, whole entry: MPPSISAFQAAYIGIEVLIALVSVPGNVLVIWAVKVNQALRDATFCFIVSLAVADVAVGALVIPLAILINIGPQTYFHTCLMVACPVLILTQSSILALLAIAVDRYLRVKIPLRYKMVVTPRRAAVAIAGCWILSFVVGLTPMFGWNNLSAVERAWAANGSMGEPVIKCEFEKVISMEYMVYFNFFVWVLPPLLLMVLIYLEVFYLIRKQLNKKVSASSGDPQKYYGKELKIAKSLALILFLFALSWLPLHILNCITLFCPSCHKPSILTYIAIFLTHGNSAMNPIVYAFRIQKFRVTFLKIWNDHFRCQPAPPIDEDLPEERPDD

Assays:
[1] = target: human A1 adenosine receptor (hA1) (Homo sapiens (Human), UniProt P30542); assay: Binding affinity for human A1 adenosine receptor ([3H]CCPA, CHO cells); conditions: nM ± SEM
[2] = target: human A2A adenosine receptor (hA2A) (Homo sapiens (Human), UniProt P29274); assay: Binding affinity for human A2A adenosine receptor ([3H]CGS-21680, HEK 293 cell); conditions: nM ± SEM

OC1CS[C@@H](n2cnc3c(NCc4cccc(I)c4)ncnc32)C1O (stereo in doubt) [Example 14, (2R,3R,4S)-2-(6-(3-Iodobenzylamino)-9H-purin-9-yl)tetrahydrothiophen-3,4-diol]
Ki [1]: 530 ± 97 nM | Ki [2]: 230 ± 65 nM
